Data as given in patent US10149839B2, “Chemical compounds” (AstraZeneca AB, priority 2016, dated 2018).

Protein sequences, listed by entry. Tags and fused reporters are not part of them.
UniProt P03372, whole entry: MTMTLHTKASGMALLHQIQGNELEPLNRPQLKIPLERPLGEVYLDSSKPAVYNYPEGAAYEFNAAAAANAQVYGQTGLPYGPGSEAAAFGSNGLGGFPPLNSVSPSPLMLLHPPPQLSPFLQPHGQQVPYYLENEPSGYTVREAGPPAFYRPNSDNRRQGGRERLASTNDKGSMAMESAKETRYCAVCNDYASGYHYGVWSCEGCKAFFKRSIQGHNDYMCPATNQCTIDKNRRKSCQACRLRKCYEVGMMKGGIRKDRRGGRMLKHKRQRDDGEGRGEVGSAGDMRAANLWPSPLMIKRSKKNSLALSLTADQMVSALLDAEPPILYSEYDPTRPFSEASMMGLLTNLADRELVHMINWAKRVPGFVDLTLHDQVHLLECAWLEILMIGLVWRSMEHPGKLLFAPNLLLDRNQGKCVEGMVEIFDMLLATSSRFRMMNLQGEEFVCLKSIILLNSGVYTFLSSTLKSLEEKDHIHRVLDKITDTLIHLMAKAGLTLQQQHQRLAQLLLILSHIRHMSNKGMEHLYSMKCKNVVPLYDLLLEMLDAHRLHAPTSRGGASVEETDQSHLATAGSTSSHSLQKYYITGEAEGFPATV

Assays:
Assay type in all cases: cell-based
[1] = target: T1, Estrogen Receptor (ERα) in MCF-7 cells (Homo sapiens (Human), UniProt P03372); assay: MCF-7 ER down-regulation assay (immuno-fluorescence); settings: for IC50: 18-22 hours incubation; for % downregulation: shown in brackets where not >90%
[2] = target: T1, Estrogen Receptor (ERα) in MCF-7 cells; assay: Western blotting assay, MCF-7 cells; settings: compound 100 nM, 48 h, normalised to 100 nM fulvestrant (100%)
[3] = target: estrogen receptor (ERα) in CAMA-1 cells (Homo sapiens (Human), UniProt P03372); assay: Western blotting assay, CAMA-1 cells; settings: compound 100 nM, 48 h, normalised to 100 nM fulvestrant (100%)

IC50 [1]	% downregulation [1]	MCF7 Western % ER deg vs Fv [2]	CAMA1 Western % ER deg vs Fv [3]	Structure (SMILES)
160 pM	–	–	–	COc1cc(OCCNCCCF)ccc1[C@@H]1c2[nH]c3ccccc3c2C[C@@H](C)N1CC1(F)COC1 [Example 8, 3-fluoro-N-(2-(4-((1R,3R)-2-((3-fluorooxetan-3-yl)methyl)-3-methyl-2,3,4,9-tetrahydro-1H-pyrido[3,4-b]indol-1-yl)-3-methoxyphenoxy)ethyl)propan-1-amine]
–	(89%)	–	–	C[C@@H]1Cc2c([nH]c3ccccc23)[C@@H](c2ccc(OCCNCCCF)cc2)N1CC1(F)CC1 [Example 23, 3-fluoro-N-(2-(4-((1R,3R)-2-((1-fluorocyclopropyl)methyl)-3-methyl-2,3,4,9-tetrahydro-1H-pyrido[3,4-b]indol-1-yl)phenoxy)ethyl)propan-1-amine]
–	–	88%	–	COc1cc(OCCNCCCF)ccc1[C@@H]1c2[nH]c3ccccc3c2C[C@@H](C)N1CC(F)F [Example 43, N-(2-(4-((1R,3R)-2-(2,2-Difluoroethyl)-3-methyl-2,3,4,9-tetrahydro-1H-pyrido[3,4-b]indol-1-yl)-3-methoxyphenoxy)ethyl)-3-fluoropropan-1-amine]
87 pM	–	86%	58%	COc1cc(OCCNCCCF)ccc1[C@@H]1c2[nH]c3ccccc3c2C[C@@H](C)N1CC(F)(F)CO [Example 58, 2,2-difluoro-3-((1R,3R)-1-(4-(2-((3-fluoropropyl)amino)ethoxy)-2-methoxyphenyl)-3-methyl-1,3,4,9-tetrahydro-2H-pyrido[3,4-b]indol-2-yl)propan-1-ol]
630 pM	(87%)	–	–	COc1cc(NCCNCCCF)ncc1[C@@H]1c2[nH]c3ccccc3c2C[C@@H](C)N1CC(F)(F)CO [Example 65, 2,2-difluoro-3-((1R,3R)-1-(6-((2-((3-fluoropropyl)amino)ethyl)amino)-4-methoxypyridin-3-yl)-3-methyl-1,3,4,9-tetrahydro-2H-pyrido[3,4-b]indol-2-yl)propan-1-ol]
